Assay results taken from PMC10375536, “Discovery of High-Affinity Amyloid Ligands Using a Ligand-Based Virtual Screening Pipeline” (Journal of the American Chemical Society, 2023).

Sequences of proteins named here, by UniProt entry; tags and fusion partners are left off. Residues count along the entry.
UniProt P05067, 672-713 limits assumed: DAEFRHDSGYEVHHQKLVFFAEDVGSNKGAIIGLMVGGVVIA

Target: T1, Aβ(1–42) fibrils (Homo sapiens, UniProt P05067)
T1 construct: Monomeric Aβ(1-42) (1 mg: Rockland Immunochemicals, Limerick, PA, Lot #31541); purchased Rockland Immunochemicals, Limerick, PA Lot #31541 (a lot number; no catalogue number given)
Assay: direct fluorescence titration into fibrils (saturation binding assay)

Kd (ThT titrated into Aβ(1–42) fibrils (500 nM), 1× PBS pH 7.4, 25 °C, best fit to eq 2, read-out: log(Kd(ThT)/M) (converted)): 200 nM
−log(Kd/M) (direct titration of ThT into Aβ(1–42) fibrils, single-site binding model): 6.7 ± 0.1
Structure (SMILES): Cc1ccc2c(c1)sc(-c1ccc(N(C)C)cc1)[n+]2C [ThT, Thioflavin T]
